# scFv variants of Ab-91 (heavy chain) against a SARS-CoV-2 spike peptide

From the AlphaSeq antibody data of Engelhart et al. 2022 (doi:10.1038/s41597-022-01779-4), copy in the FLAb collection.

The target is the same throughout: PDVDLGDISGINAS, from the HR2 region of SARS-CoV-2 spike.

Ab-91 is the parent antibody, in scFv form: VL, then three GGGGS repeats, then VH. The light chain is unchanged in all variants.
VL: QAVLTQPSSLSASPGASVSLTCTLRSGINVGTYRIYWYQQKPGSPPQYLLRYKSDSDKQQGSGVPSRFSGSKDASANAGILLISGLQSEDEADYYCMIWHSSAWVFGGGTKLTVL
VH: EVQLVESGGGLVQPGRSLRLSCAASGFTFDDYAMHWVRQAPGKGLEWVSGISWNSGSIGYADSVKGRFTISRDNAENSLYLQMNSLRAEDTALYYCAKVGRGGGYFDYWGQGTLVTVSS

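AAYL51 was designed without a model: most single CDR substitutions and a random sample of double and triple ones. Affinity was read by AlphaSeq, a pooled yeast mating assay with surface-displayed partners. Mating (16 h, 30 °C) was followed by selection of diploids and sequencing of their barcodes. Each replicate has its own calibration line, from reference interactions of the BCL2 family. The assay was run in three technical replicates.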

The parent's heavy chain CDRs are GFTFDDYAMH, GISWNSGSIGYADSVK, VGRGGGYFDY; each variant's own CDRs replace them letter for letter. Scale: log10 of Kd in nM, estimated from mating counts; low values are strong binders. Averages over replicates are reported, and they cover detected replicates only. A pair that was not seen in that replicate is written "ND"; this usually means weak binding, but a binder can also be missed. Background: pairings of library AAYL51 with three empty control strains gave a value in 21% of cases (median 4.54, 5th percentile 3.26). Values in that range, when seen in few replicates, are hard to tell from nonspecific mating. For each scFv, signals with the empty controls are counted beside the result, with their mean in brackets.

| CDR-H1 | CDR-H2 | CDR-H3 | log10 Kd, replicates | log10 Kd (nM), mean | control signals |
|---|---|---|---|---|---|
| GFTFDDYLMH | GISWNSGSIGYADNVK | VGRGGGYFDF | 3.91 ND ND | 3.91 | 0/9 |
| GFTFDDYAMH | GLSVNSQSIGYADSVK | VGRGGGYFDY | ND ND ND | ND | 0/9 |
| DFTFDDYAMH | GISWNSGSIGYADSVK | VGRGGGGFDY | ND 4.24 ND | 4.24 | 0/9 |
| GFTADDYAMH | GISWNSGSIGYADSVK | VPRGNGYFDY | ND ND ND | ND | 2/9 (4.30) |
| SFTFDDYAMH | GISWASGSIGYADSVK | VGRNGGYFDY | ND ND ND | ND | 1/9 (3.43) |
| GFTFDDYAMH | GITWNSGSIGYADSVK | VAVGGGYFDY | 5.59 4.43 ND | 5.01 | 5/9 (4.60) |
| GFCFDDYAMH | GISWNSGSIGYADSVK | TGRGGGYFDY | 5.27 6.47 ND | 5.87 | 4/9 (5.17) |
| GFTFDMYAMH | GISWNSGHIGYADSVK | VGRGGGYFDY | 2.08 2.15 1.78 | 2.00 | 3/9 (4.60) |
| GFTFDDYAMH | GIQWEQGSIGYADSVK | VGRGGGYFDY | 4.55 4.58 5.11 | 4.75 | 5/9 (5.13) |
| GFTFDDYAMH | GASWNSGSIGYADSVK | WGIGGGYFDY | 4.72 ND ND | 4.72 | 3/9 (4.48) |
| GSTFDDYAMH | GISWNSGSIGYADSVK | VGNGGGYIDY | ND ND ND | ND | 0/9 |
| GFTFDDNAMH | GISWNSGSIGYADSGK | VGRGGGYFAY | 4.82 3.95 ND | 4.38 | 3/9 (3.91) |
| GFTFDDYAMV | GISWNSGSIGKDDSVK | VGRGGGYFDY | 5.08 ND ND | 5.08 | 5/9 (4.63) |
| GVTFDDYEMH | GISWNSRSIGYADSVK | VGRGGGYFDY | ND ND ND | ND | 0/9 |
| AFTFDDYAMH | EISWNSGSIGYADWVK | VGRGGGYFDY | ND ND ND | ND | 0/9 |
| GFTFDDYYMH | GISWNSGSIGYADYRK | VGRGGGYFDY | ND 4.99 ND | 4.99 | 0/9 |
| GFTFDDYFMH | GISWNSGWIGYALSVK | VGRGGGYFDY | ND ND ND | ND | 1/9 (2.63) |
| GFTFDDYAMH | GISWNSGSDGYADSVK | VGRGGQYFDR | ND 4.01 ND | 4.01 | 0/9 |
| GFTFDIYAMH | GVSWNSGSIGYADSVK | VGRGGGTFDY | ND ND ND | ND | 2/9 (4.50) |
| GFTFDDYAMH | GFSWNSGSIGYADSAK | VGRGGGYFDY | ND 4.83 ND | 4.83 | 1/9 (4.71) |
| GFTFMDYAMH | GISWMSGSIGYADSVK | VGRGGRYFDY | ND ND ND | ND | 3/9 (4.06) |
| GFTFDDYAMH | GQSWNSGSIGYADSVK | VGRGGAYFGY | 5.20 ND ND | 5.20 | 1/9 (3.24) |
| GFTFDDYAMH | GISRNLGSIGYADSVK | AGRGGGYFDY | 4.38 ND ND | 4.38 | 0/9 |
| GFTFDDYAMH | GISWKSGSIGYADVVK | VGRGGGYFIY | ND ND ND | ND | 0/9 |
| GFTFDDYAMH | GTSWNSGSIGYACSVK | VGRGGGYFDY | ND ND ND | ND | 2/9 (4.35) |
| GPTFDDYAMH | GISWNNGSIGYADSLK | VGRGGGYFDY | 3.50 4.13 3.00 | 3.54 | 0/9 |
| GFTFDDYAMH | GLSWNSPSIGYADSVK | VERGGGYFDY | 6.23 ND 5.25 | 5.74 | 2/9 (3.91) |
| GFTFDDYAMH | GASWNAGSIGYADSVK | VGRGFGYFDY | ND ND ND | ND | 0/9 |
| GATSDDYAMH | GISWNSGSIGYADSVK | VGRGGGYFDV | ND 6.13 4.66 | 5.40 | 3/9 (4.29) |
| GFTFDDYAMH | GISWNSGSIGYADWVK | VGRGGGYFVY | 6.21 6.23 ND | 6.22 | 4/9 (4.37) |
| GFTMDDYAMH | GISWCSGSIGYADSVK | VGRGGGYFDY | ND 5.58 ND | 5.58 | 0/9 |
| GFTFEDYAMH | GIPWNSGSIFYADSVK | VGRGGGYFDY | 4.76 ND ND | 4.76 | 1/9 (3.94) |
| GFTEDDYAMH | IISWNSGSIGYADSRK | VGRGGGYFDY | ND ND ND | ND | 0/9 |
| GFTFKDYKMH | GISWNSGSIGYADSVK | VGRGVGYFDY | 3.95 ND ND | 3.95 | 1/9 (4.45) |
| GFTFDDYAMH | HISWNSGSIGYKDSVK | VGRGGGYFDY | ND ND ND | ND | 3/9 (3.41) |
| GFTFDDYAMH | GISWNSGSIGYADSVM | VGRGGGYFPQ | ND ND ND | ND | 1/9 (4.18) |
| GFSFDCYAMH | GISWNSGSIGYADSVK | VKRGGGYFDY | 5.82 ND ND | 5.82 | 4/9 (5.11) |
| GFTFDDYAMH | GISWNSISIGYARSVK | VGVGGGYFDY | 4.61 ND ND | 4.61 | 2/9 (4.05) |
| GFTFDDYAMH | GISWNYGSIGYADSVK | VEREGGYFDY | ND ND ND | ND | 3/9 (4.36) |
| GFTFDDNMMH | GISWNSGSIGYADSVK | VGGGGGYFDY | ND ND ND | ND | 1/9 (2.76) |
| GFTFDDYAMH | GISWNSGSIGYADKVW | VGRGGGMFDY | 1.77 1.57 1.36 | 1.57 | 1/9 (4.26) |
| HFTFDDYAMH | GISWNSGSIGYKDTVK | VGRGGGYFDY | 5.23 ND ND | 5.23 | 1/9 (2.97) |
| GFTFDDYAMH | GISWNSGSIGYADYVF | VGRGWGYFDY | ND 4.39 ND | 4.39 | 3/9 (4.62) |
| GVTFDDYVMH | GISWNSGSIGYADSVK | VGRGGGIFDY | 3.45 3.17 3.48 | 3.37 | 5/9 (4.29) |
| GFTFDDYAMH | GISWASGCIGYADSGK | VGRGGGYFDY | 5.64 5.22 4.00 | 4.96 | 4/9 (4.13) |
| GFTFHKYAMH | GISWNSGSIGYADSVK | VGRGGGYFRY | ND ND ND | ND | 0/9 |
| NFTFDDYAFH | GISWNSGSIGYADSVK | VGRGGGYSDY | ND ND ND | ND | 0/9 |